Antibody variant affinities, Ab-95 light chain, assay 2

From the AlphaSeq antibody data of Engelhart et al. 2022 (doi:10.1038/s41597-022-01779-4), copy in the FLAb collection.

Antigen: PDVDLGDISGINAS, a 14-residue peptide of the SARS-CoV-2 spike HR2 region.

Each scFv is VH, three GGGGS repeats, VL, as in the parent Ab-95, and differs from it in the CDRs of the light chain only.
VH: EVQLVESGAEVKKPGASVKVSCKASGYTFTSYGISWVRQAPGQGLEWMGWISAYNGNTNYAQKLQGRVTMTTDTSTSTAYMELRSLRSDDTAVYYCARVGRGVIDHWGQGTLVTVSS
VL: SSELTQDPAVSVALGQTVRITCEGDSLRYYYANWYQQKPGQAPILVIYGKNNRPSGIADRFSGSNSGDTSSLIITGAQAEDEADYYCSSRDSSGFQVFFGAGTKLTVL

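Variants in AAYL52 differ from the parent at up to three CDR positions; double and triple changes were sampled at random. Affinity was read by AlphaSeq, a pooled yeast mating assay with surface-displayed partners. The frequency of each diploid, read from paired DNA barcodes, reflects how well the two displayed proteins bind. Each replicate has its own calibration line, from reference interactions of the BCL2 family. Each pool was mated in three replicate cultures.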

Each variant is given by its three light chain CDRs, as the data file delimits them; those of the parent are EGDSLRYYYAN, GKNNRPS, SSRDSSGFQVF. Every variant below is changed at Y29 of the VL (sequential numbering). Each Kd is an estimate from the mating assay, the geometric mean of the replicates in which the pair was seen; lower is stronger. "nd" means that the variant was in the library but no mating with the target was seen in any replicate; the authors take this as a sign of poor binding, and no number exists.

Variant EGDFPRHYYAN | GKNNRPS | SSRDSSGFQVF gave 3.2 µM (3 of 3 replicates; controls 1 of 9). Variant EGDSLRTYYIN | GKNNRPS | SSRDSSRFQVF showed 61 µM (2 of 3 replicates; controls 5 of 9). For EKDSLRLYYAN | GKNNRPS | SSRDSSGFQVV, the assay gave 130 µM (1 of 3 replicates; controls 2 of 9). For EGDSLRSYYAV | GKNNRPS | SSRDSSYFQVF, the assay gave 8.4 µM (3 of 3 replicates; controls 5 of 9). With EGDSLRCYYAN | GKNNRPS | HSRDSSGFQVS the result was 1.3 µM (3 of 3 replicates; controls 8 of 9). With EGDSLRMYYAN | GKNNRPS | SSCDSSGFCVF the result was 2.8 µM (3 of 3 replicates; controls 1 of 9). Variant EGDSLRWYYPN | GKNNRPS | SSRDSSGFQVF showed 290 nM (3 of 3 replicates; controls 3 of 9). With EGDSLRCYYAN | GKNNRPS | SSRDSPGFQVC the result was 980 µM (1 of 3 replicates; controls 2 of 9). For EGDSLRVYYGN | GKNNRPS | SSRSSSGFQVF, the assay gave 150 nM (3 of 3 replicates; controls 1 of 9).

Variant EGDSLRHYYMN | GKNNRPS | SSRDSSGLQVF showed 27 µM (2 of 3 replicates; controls 1 of 9). Variant EGDDLRNYYAN | GKNNRPS | SSRDMSGFQVF showed 400 nM (3 of 3 replicates; controls 2 of 9). Variant EGDSLRIKYAN | GKNNRPS | SSRDSSGFQKF gave 21 µM (1 of 3 replicates; controls 1 of 9). For EGDSLRQYYAN | GKDRRPS | SSRDSSGFQVF, the assay gave 700 nM (3 of 3 replicates; controls 1 of 9). For EGISLKTYYAN | GKNNRPS | SSRDSSGFQVF, the assay gave 130 nM (3 of 3 replicates; controls 2 of 9). Variant EGDSERSYGAN | GKNNRPS | SSRDSSGFQVF showed 180 nM (3 of 3 replicates; controls 1 of 9). Variant EGDSLRFYYAN | GKNMRPS | SSRDSSGFQVF gave 170 nM (3 of 3 replicates; controls 3 of 9). With EGDSLRSYYAN | GKNNRPS | SSRDSSGFQVF the result was 24 nM (3 of 3 replicates; controls 5 of 9). For EGDSLRVYKAN | GKNNRPS | SSQDSSGFQVF, the assay gave 12 µM (3 of 3 replicates; controls 2 of 9).

Variant CGDSQRIYYAN | GKNNRPS | SSRDSSGFQVF showed 15 µM (3 of 3 replicates; controls 2 of 9). Variant EGDSLRRYYNN | SKNNRPS | SSRDSSGFQVF gave 12 µM (1 of 3 replicates; controls 1 of 9). Variant EGDSLRSYYAN | GKNNRPS | SSRDSSGNQVC showed 250 nM (3 of 3 replicates; controls 2 of 9). Variant EGDSLRMYYAN | GKNNRPS | SSRDSSYFQVF gave nd (0 of 3 replicates; controls 1 of 9). For EGDSLRVYYAN | GKNYRPS | SSRDSSGFQQF, the assay gave 2.9 µM (2 of 3 replicates; controls 4 of 9). With EGDSLRSYYAN | GKNNVPS | SSRDSSGFQVF the result was 170 nM (3 of 3 replicates; controls 5 of 9). With EGDSLIPYYAN | GKNNRPS | SSRDSSGFQAF the result was 3.3 µM (3 of 3 replicates; controls 8 of 9). Variant EGDSLRNYSAN | GKNNRPS | SSRDSSGFQVA showed 170 nM (3 of 3 replicates; controls 2 of 9). Variant EGDSLRRYYAN | GKNNRPS | SSRESSVFQVF showed 260 nM (3 of 3 replicates; controls 6 of 9).

Variant ETDSLRDYYAN | GKNNRPH | SSRDSSGFQVF gave 830 nM (3 of 3 replicates; controls 4 of 9). For EPDSLRHYYAN | GKDNRPS | SSRDSSGFQVF, the assay gave 6.0 µM (3 of 3 replicates; controls 2 of 9). With EGDSLRHYYAN | GKNNRPS | SPRDSSGFQVF the result was 1.0 µM (3 of 3 replicates; controls 5 of 9). For EGDSLRNYYAN | GKNNRPS | ISRDSSGFQVF, the assay gave 17 nM (3 of 3 replicates; controls 6 of 9). With EGDSLRAEYAN | GKNNRPS | SSRVSSGFQVF the result was 3.8 µM (2 of 3 replicates; controls 1 of 9). With EGISLRGYYAN | GKNNRPS | SSRDSSGFQWF the result was 95 nM (3 of 3 replicates; controls 3 of 9). Variant EGDSLRAYYAN | GYNNRPS | SSRDSSQFQVF gave 4.9 µM (2 of 3 replicates; controls 1 of 9). Variant EGDSLRVYYAN | EKNNRPS | MSRDSSGFQVF showed 660 nM (2 of 3 replicates; controls 0 of 9). With EGDSKRTYYAN | GKNNRPS | SSRDSDGFQVF the result was 27 µM (2 of 3 replicates; controls 5 of 9).

With EGDSARCYYAN | GKNNRPS | SGRDSSGFQVF the result was 1.2 µM (1 of 3 replicates; controls 1 of 9). With EGDSLRWYYCN | KKNNRPS | SSRDSSGFQVF the result was 21 µM (2 of 3 replicates; controls 3 of 9).

For reference, the parent read 200 nM as the reference entry and 180 nM as a member of this library. Empty control strains, which show no peptide, gave a signal in 28% of pairings with library AAYL52; the median was 8.2 µM and 95% of these signals were weaker than 800 nM. No background was subtracted. For each scFv, signals with the empty controls are counted beside the result.